By UniProt entry, the sequences of proteins in these tests, tags left out. Where a name states a change or a piece, a line headed by the entry shows the natural chain unless it says otherwise.
UniProt C7C422: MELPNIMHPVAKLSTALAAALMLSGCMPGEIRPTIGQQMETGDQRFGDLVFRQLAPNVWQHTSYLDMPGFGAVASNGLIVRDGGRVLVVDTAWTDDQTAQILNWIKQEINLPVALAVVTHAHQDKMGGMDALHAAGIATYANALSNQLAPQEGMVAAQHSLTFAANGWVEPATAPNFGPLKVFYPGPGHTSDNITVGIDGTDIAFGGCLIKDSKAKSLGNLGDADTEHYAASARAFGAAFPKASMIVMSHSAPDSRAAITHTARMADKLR

In ChEMBL document CHEMBL5365420, “Kinetics, Thermodynamics, and Structural Effects of Quinoline-2-Carboxylates, Zinc-Binding Inhibitors of New Delhi Metallo-β-lactamase-1 Re-sensitizing Multidrug-Resistant Bacteria for Carbapenems” (J Med Chem, 2023):

Molecular target: Metallo-beta-lactamase type 2 (Bacteria, UniProt C7C422)

SMILES: Oc1c(Cl)cc(Cl)c2cccnc12 [CHLOROXINE]
- IC50: 4.9 µM
